Assay results: publication PMC6499816, “Molecular determinants regulating selective binding of autophagy adapters and receptors to ATG8 proteins” (Nature Communications, 2019)

Protein sequences, listed by entry. Tags and fused reporters are not part of them. Lines headed by an entry give the natural chain unless they say otherwise; changes in a name come on top.
UniProt Q9H0R8, whole entry: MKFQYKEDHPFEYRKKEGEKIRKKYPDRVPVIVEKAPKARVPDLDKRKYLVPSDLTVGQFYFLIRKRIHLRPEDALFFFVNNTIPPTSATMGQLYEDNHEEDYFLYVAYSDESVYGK
UniProt P60520, whole entry: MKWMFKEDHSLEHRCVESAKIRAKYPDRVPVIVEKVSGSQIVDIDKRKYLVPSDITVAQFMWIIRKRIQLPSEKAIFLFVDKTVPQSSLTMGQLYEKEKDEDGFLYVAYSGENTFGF
UniProt Q9BXW4: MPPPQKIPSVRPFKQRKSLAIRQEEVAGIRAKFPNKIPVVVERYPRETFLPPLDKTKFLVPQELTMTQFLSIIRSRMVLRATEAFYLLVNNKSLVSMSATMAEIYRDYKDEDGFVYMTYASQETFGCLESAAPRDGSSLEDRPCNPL

Assays:
[1] = target: T1, GABARAP (Homo sapiens, UniProt O95166); test: BLI, LIR peptide binding to GABARAP; details: n=2 independent experiments
T1 construct: GST (followed by 3C protease site) (N); made in house; host or cells: bacteria (E. coli BL21 (DE3) pLysS is stated for the GST-ATG8 proteins of the overlay assay)
Experimental: (§1) For recombinant protein expression in bacteria, a modified plasmid of pGEX-6P2 (GE Healthcare) (referred to as pAL) containing an N-terminal […] followed by a 3C protease cleavage site was used.
(§2) Expression was induced by the addition of 0.5 mM IPTG at OD600 = 0.6 and cells were incubated at 25 °C overnight or at 37 °C for 5 h. Harvested cells were lysed in 50 mM Tris-HCl, pH 8.0, 500 mM NaCl, 0.1% Triton X-100, 0.4 mM 4-(2-aminoethyl)-benzenesulfonylfluoride HCl (AEBSF), and 15 µg/ml benzamidine. Fusion protein was batch adsorbed onto Glutathione-Sepharose 4B beads (GE Healthcare). After five washes with wash buffer (50 mM Tris, pH 8.0, 250 mM NaCl, 0.4 mM AEBSF, and 15 µg/ml benzamidine), fusion proteins were eluted in 50 mM Tris, pH 8.0, 2 mM L-glutathione reduced, 0.4 mM AEBSF, and 15 µg/ml benzamidine.
(§3) The biosensor tip surface immobilized with a ligand is incubated with an analyte in solution, resulting in an increase in optical thickness at the biosensor tip and a wavelength shift, which is a direct measure of the change in thickness. […] Ligand-loaded SA biosensors were then incubated with different concentrations of ATG8. All binding experiments were performed in solid-black 96-well plates containing 200 μl of solution (25 mM Tris, pH 7.5, 150 mM NaCl, 0.5 mM TCEP, 0.1% Tween-20, 1 mg/ml bovine serum albumin (BSA)) in each well at 25 °C with an agitation speed of 1000 rpm. Each measurement was repeated two to five times.
(§4) Peptides were synthesized using FMOC (fluorenylmethoxycarbonyl) solid-phase peptide chemistry by the Francis Crick Peptide Chemistry Technology Platform and are listed in Supplementary Table 2.

[2] = target: T2, GABARAPL1 (Homo sapiens, UniProt Q9H0R8); test: BLI, LIR peptide binding to GABARAPL1
T2 construct: GST (followed by 3C protease site) (N); made in house; host or cells: bacteria (E. coli BL21 (DE3) pLysS is stated for the GST-ATG8 proteins of the overlay assay)
Experimental: as §1, §2, §3, §4

[3] = target: T3, LC3A (Homo sapiens, UniProt Q9H492); test: Bio-layer interferometry (BLI), LIR peptide binding to LC3A; details: n=2 independent experiments
T3 construct: GST (followed by 3C protease site) (N); made in house; host or cells: bacteria (E. coli BL21 (DE3) pLysS is stated for the GST-ATG8 proteins of the overlay assay)
Experimental: as §1, §2, §3, §4

[4] = target: T4, LC3B (Homo sapiens, UniProt Q9GZQ8); test: BLI, LIR peptide binding to LC3B; details: n=2 independent experiments
T4 construct: GST (followed by 3C protease site) (N); made in house; host or cells: bacteria (E. coli BL21 (DE3) pLysS is stated for the GST-ATG8 proteins of the overlay assay)
Experimental: as §1, §2, §3, §4

[5] = target: T5, GABARAPL2 (Homo sapiens, UniProt P60520); test: BLI, LIR peptide binding to GABARAPL2
T5 construct: GST (followed by 3C protease site) (N); made in house; host or cells: bacteria (E. coli BL21 (DE3) pLysS is stated for the GST-ATG8 proteins of the overlay assay)
Experimental: as §1, §2, §3, §4

[6] = target: T6, LC3C (Homo sapiens, UniProt Q9BXW4); test: BLI, LIR peptide binding to LC3C; details: n=2 independent experiments
T6 construct: GST (followed by 3C protease site) (N); made in house; host or cells: bacteria (E. coli BL21 (DE3) pLysS is stated for the GST-ATG8 proteins of the overlay assay)
Experimental: as §1, §2, §3, §4

[7] = non linear regression, n=2 independent experiments

CC[C@H](C)[C@H](NC(=O)[C@@H](NC(=O)[C@H](CCC(N)=O)NC(=O)[C@H](CCC(=O)O)NC(=O)[C@@H](NC(=O)[C@H](CC(N)=O)NC(=O)[C@@H]1CCCN1C(=O)[C@H](Cc1c[nH]cn1)NC(=O)[C@@H]1CCCN1C(=O)[C@@H](NC(=O)[C@@H](NC(=O)[C@H](CCC(=O)O)NC(=O)[C@H](Cc1ccccc1)NC(=O)[C@H](CC(=O)O)NC(=O)[C@H](Cc1ccccc1)NC(=O)[C@@H](NC(=O)[C@H](Cc1c[nH]cn1)NC(=O)[C@H](C)NC(=O)[C@H](CC(=O)O)NC(=O)[C@@H](NC(=O)[C@@H](N)CO)[C@@H](C)CC)[C@@H](C)O)[C@@H](C)CC)[C@@H](C)CC)[C@@H](C)CC)[C@@H](C)O)C(=O)O [FIP200 T704I]
Rmax (best-fit value, theoretical response maximum) ([1]; non linear regression Y=Rmax*X/(Kd+X), GABARAP): 2.827 | Rmax (best-fit value, theoretical response maximum) ([2]; non linear regression Y=Rmax*X/(Kd+X), GABARAPL1, n=2 independent experiments): 2.798 | Rmax (best-fit value, theoretical response maximum) ([3]; non linear regression Y=Rmax*X/(Kd+X), LC3A): 2.13 | Rmax (best-fit value, theoretical response maximum) ([4]; non linear regression Y=Rmax*X/(Kd+X), LC3B): 1.508 | Rmax (best-fit value, theoretical response maximum) ([5]; non linear regression Y=Rmax*X/(Kd+X), GABARAPL2, n=2 independent experiments): 2.437 | Rmax (best-fit value, theoretical response maximum) ([6]; non linear regression Y=Rmax*X/(Kd+X), LC3C): 2.683

CC[C@H](C)[C@H](NC(=O)[C@@H](NC(=O)[C@H](CC(C)C)NC(=O)[C@H](CCCCN)NC(=O)[C@H](CC(C)C)NC(=O)[C@@H]1CCCN1C(=O)[C@H](CC(C)C)NC(=O)[C@H](CC(=O)O)NC(=O)[C@H](CCC(=O)O)NC(=O)[C@@H](NC(=O)[C@@H](NC(=O)[C@@H](NC(=O)[C@H](Cc1ccccc1)NC(=O)[C@H](CC(=O)O)NC(=O)[C@H](CCC(=O)O)NC(=O)[C@H](CCC(=O)O)NC(=O)[C@H](CC(=O)O)NC(=O)[C@H](CO)NC(=O)[C@H](CCCCN)NC(=O)[C@H](CCC(N)=O)NC(=O)[C@@H](N)CO)C(C)C)[C@@H](C)CC)C(C)C)[C@@H](C)O)C(=O)O [PCM1 K1967I]
Kd ([1]; Fig. 4c, fit of response vs GABARAP concentration, read-out: Kd (best-fit value)): 166 nM

CSCC[C@H](NC(=O)[C@@H](NC(=O)[C@@H](N)Cc1ccccc1)C(C)C)C(=O)N[C@H](C(=O)N1CCC[C@H]1C(=O)N[C@@H](C)C(=O)N[C@@H](CCC(N)=O)C(=O)N[C@@H](Cc1ccccc1)C(=O)N1CCC[C@H]1C(=O)NCC(=O)N[C@@H](CC(=O)O)C(=O)N[C@@H](CC(C)C)C(=O)N[C@H](C(=O)O)C(C)C)C(C)C [ULK1 (aa 357-369)]
Rmax (best-fit value) ([1]; fit of response vs GABARAP concentration): 0.1167 | Rmax (best-fit value) ([2]; fit of response vs GABARAPL1 concentration, n=2 independent experiments): 0.5113 | Rmax (best-fit value) ([3]; fit of response vs LC3A concentration): 1.233 | Rmax (best-fit value) ([4]; fit of response vs LC3B concentration): 0.7857 | Rmax (best-fit value) ([5]; fit of response vs GABARAPL2 concentration, n=2 independent experiments): 0.3039 | Rmax (best-fit value) ([6]; fit of response vs LC3C concentration): 0.6543

CC(C)C[C@H](NC(=O)[C@H](Cc1c[nH]cn1)NC(=O)[C@@H](NC(=O)[C@H](Cc1c[nH]c2ccccc12)NC(=O)[C@H](CC(=O)O)NC(=O)[C@H](CC(=O)O)NC(=O)[C@H](CC(=O)O)NC(=O)CNC(=O)CNC(=O)[C@H](CO)NC(=O)[C@H](CS)NC(=O)[C@@H](N)CC(N)=O)[C@@H](C)O)C(=O)N[C@@H](CO)C(=O)N[C@@H](CO)C(=O)N[C@@H](CCCCN)C(=O)N[C@@H](CCC(=O)O)C(=O)N[C@H](C(=O)N[C@@H](CC(=O)O)C(=O)N1CCC[C@H]1C(=O)N[C@@H](CO)C(=O)N[C@H](C(=O)O)[C@@H](C)O)C(C)C [p62 WT]
Rmax (best-fit value, theoretical response maxium) ([1]; non linear regression): 2.373 | Rmax (best-fit value, theoretical response maxium) [2, 7]: 3.016 | Rmax (best-fit value, theoretical response maxium) ([3]; non linear regression): 2.263 | Rmax (best-fit value, theoretical response maxium) ([4]; non linear regression): 1.787 | Rmax (best-fit value, theoretical response maxium) [5, 7]: 2.117 | Rmax (best-fit value, theoretical response maxium) ([6]; non linear regression): 2.622
